Data reported in patent US20030099674A1 (priority 2001, published 2003).

Test: Solubility of paclitaxel in oil emulsions containing soy lecithin
Conditions: 30 mg/g soy lecithin, 100 mg/g oil, 115 mg/g sucrose

Solubility at 5° C. (Corn oil emulsion): 15 mg/g of oil | Solubility at 5° C. (Cottonseed oil emulsion): 20 mg/g of oil | Solubility at 25° C. (Cottonseed oil emulsion): 9 mg/g of oil | Solubility at 5° C. (Ethyl oleate emulsion): 6 mg/g of oil | Solubility at 25° C. (Ethyl oleate emulsion): 5 mg/g of oil | Solubility at 5° C. (MCT emulsion): 22 mg/g of oil | Solubility at 25° C. (MCT emulsion): 14 mg/g of oil | Solubility at 5° C. (Safflower oil emulsion): 12 mg/g of oil | Solubility at 25° C. (Safflower oil emulsion): 9 mg/g of oil | Solubility at 5° C. (Sesame oil emulsion): 30 mg/g of oil | Solubility at 25° C. (Sesame oil emulsion): 20 mg/g of oil | Solubility at 25° C. (Soybean oil emulsion): 5 mg/g of oil | Solubility at 5° C. (Vitamin E emulsion): 0 mg/g of oil | Solubility at 25° C. (Vitamin E emulsion): 0 mg/g of oil
SMILES: CC(=O)O[C@H]1C(=O)[C@@]2(C)[C@H]([C@H](OC(=O)c3ccccc3)[C@]3(O)C[C@H](OC(=O)[C@H](O)[C@@H](NC(=O)c4ccccc4)c4ccccc4)C(C)=C1C3(C)C)[C@]1(OC(C)=O)CO[C@@H]1C[C@@H]2O [paclitaxel]
